Measured values as given in patent publication US10017509B2, “Macrocylic pyrimidine derivatives” (Janssen Pharmaceutica NV, priority 2014, dated 2018).

Protein sequences, listed by entry. Tags and fused reporters are not part of them.
UniProt O00418, whole entry: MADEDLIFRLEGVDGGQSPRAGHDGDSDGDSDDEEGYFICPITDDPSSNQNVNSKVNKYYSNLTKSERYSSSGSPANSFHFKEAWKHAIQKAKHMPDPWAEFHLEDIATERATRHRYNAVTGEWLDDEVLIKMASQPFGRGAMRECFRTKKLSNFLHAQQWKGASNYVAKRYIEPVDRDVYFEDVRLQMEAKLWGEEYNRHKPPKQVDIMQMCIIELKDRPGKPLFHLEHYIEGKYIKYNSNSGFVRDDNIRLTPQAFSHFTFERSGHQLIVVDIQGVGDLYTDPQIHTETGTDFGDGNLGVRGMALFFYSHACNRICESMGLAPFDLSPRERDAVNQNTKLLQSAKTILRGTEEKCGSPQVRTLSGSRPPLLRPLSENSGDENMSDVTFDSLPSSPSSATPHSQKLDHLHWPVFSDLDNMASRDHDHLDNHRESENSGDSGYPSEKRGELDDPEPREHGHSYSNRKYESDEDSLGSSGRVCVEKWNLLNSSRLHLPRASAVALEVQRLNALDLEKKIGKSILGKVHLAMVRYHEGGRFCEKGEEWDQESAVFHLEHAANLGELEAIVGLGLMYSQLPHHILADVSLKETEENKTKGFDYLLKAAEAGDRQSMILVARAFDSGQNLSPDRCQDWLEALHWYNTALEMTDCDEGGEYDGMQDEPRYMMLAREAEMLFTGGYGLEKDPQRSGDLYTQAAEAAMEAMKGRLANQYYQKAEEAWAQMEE
UniProt Q8NEB9, whole entry: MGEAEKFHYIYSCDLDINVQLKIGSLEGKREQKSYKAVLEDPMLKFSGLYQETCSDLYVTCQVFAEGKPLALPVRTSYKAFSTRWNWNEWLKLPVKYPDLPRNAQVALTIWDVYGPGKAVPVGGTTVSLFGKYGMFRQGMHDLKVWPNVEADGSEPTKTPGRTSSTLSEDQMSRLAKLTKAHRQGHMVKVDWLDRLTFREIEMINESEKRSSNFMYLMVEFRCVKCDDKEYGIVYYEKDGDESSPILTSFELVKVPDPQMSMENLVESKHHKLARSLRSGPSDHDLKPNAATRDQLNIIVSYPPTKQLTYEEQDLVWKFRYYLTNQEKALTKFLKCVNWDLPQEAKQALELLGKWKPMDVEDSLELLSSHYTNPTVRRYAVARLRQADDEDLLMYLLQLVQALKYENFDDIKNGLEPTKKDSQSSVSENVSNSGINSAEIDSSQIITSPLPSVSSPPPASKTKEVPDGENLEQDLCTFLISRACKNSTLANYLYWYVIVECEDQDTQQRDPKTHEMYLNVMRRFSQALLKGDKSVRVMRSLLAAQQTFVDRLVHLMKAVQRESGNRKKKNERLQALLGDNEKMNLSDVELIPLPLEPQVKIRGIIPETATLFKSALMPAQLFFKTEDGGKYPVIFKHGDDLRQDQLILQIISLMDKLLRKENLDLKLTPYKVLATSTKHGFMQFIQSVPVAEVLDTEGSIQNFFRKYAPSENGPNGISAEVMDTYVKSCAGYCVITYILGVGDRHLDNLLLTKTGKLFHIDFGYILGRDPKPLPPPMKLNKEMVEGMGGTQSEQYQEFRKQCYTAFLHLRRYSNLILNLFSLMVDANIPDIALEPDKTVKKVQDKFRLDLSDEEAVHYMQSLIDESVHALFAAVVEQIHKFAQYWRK

Experiments:
[1] = biological target: T1, EF2K (Homo sapiens, UniProt O00418); test: EF2K cell-based assay (P-EF2 AlphaLISA, 2-deoxyglucose stimulated MCF10A cells); details: 2.5 mM 2-deoxyglucose stimulated, P-EF2 Thr56, pIC50 = -log IC50 (M)
Experimental: In this assay, 2.5 mM 2-deoxyglucose was used to deplete intracellular ATP and activate 5′ adenosine monophosphate-activated protein kinase (AMPK) in the immortalized epithelial breast cell lines, MCF10A. MCF 10A cells were purchased from ATCC (CRL-10317).
MCF10A cells are seeded at a density of 1.25×10^5 Cells/ml at 100 μl/well in a 96-well plate and incubated for 24 hours (37° C., 5% CO2). Compound is added for 1 hour, and cell are stimulated with 2.5 mM of 2-deoxy-glucose for 4 hours. Medium is then removed, and cells are lysed in an ice-cold buffer M-PER (Thermo Scientific, 78501), containing protease and phosphatase inhibitors. P-EF2 levels are determined in these lysates using the P-EF2 AlphaLISA described above.
(§1) (pIC50 is −log IC50 where IC50 represents the concentration expressed in M at which the test compound gives 50% inhibition)

[2] = biological target: T1, EF2K; test: Biochemical EF2K lysate-based kinase assay (AlphaLISA p-eEF2 Thr56); details: pIC50 = -log IC50 (M)
Source text: Biochemical EF2K Lysate-Based Kinase Assay
LN-229 cells were purchased from ATCC (CRL-2611); these are glioblastoma cells. Cell lysates from LN229 were used in this kinase assay to provide both the kinase and the substrate (EF2). The AlphaLISA p-eEF2 (Thr56) detection assay was developed using a sandwich assay format with two specific antibodies recognizing different epitopes of the target, including one antibody against the phosphorylation site of interest. One anti-eEF2 antibody was conjugated onto AlphaLISA Acceptor beads, while the second antibody was biotinylated and captured by streptavidin coated Donor beads.
Compound was mixed with LN-229 cell lysates in the presence of a kinase buffer (e.g. HEPES) at a pH of 6.6, containing 10 mM Mg^2+ (e.g. magnesium acetate) and 10 mM adenosine-tri-phosphate (ATP) and incubated at room temperature for 15 minutes. The kinase reaction was stopped with excess ethylenediaminetetraacetic acid disodium salt and the biotinylated-anti phospho eEF2 antibody (3 nM) was added for 1 hour. Then the anti-EF2 acceptor beads (10 μg/ml) as well as the streptavidin coated donor beads (20 μg/ml) were added for 1 hour, and the AlphaLISA signal was measured in an Envision instrument once, left overnight, and measured again for the final read.
as §1

[3] = biological target: Vps34 (PIK3C3 lipid kinase) (Homo sapiens, UniProt Q8NEB9); test: Biochemical Vps34 lipid kinase assay (ADP-Glo); details: for VPS34 pIC50: serial half-log dilution 10 μM to 0.3 nM, pIC50 = -log IC50 (M); for VPS34_1microM_% of cntrl: single dose 1 μM compound, residual activity compared to control (DMSO)
Experimental: Biochemical Vps34 Lipid Kinase Assay
A non-radiometric kinase assay (ADP-Glo™ Assay, Promega, Madison, Wi, USA) was used for measuring the kinase activity of the PIK3C3 lipid kinase. All kinase assays were performed in 96-well half-area microtiter plates in a 25 μl reaction volume. The reaction cocktail was pipetted in 3 steps in the following order: • 10 μl of ATP solution (in assay buffer, see below) • 5 μl of test sample in 5% DMSO 10 μl of enzyme/substrate mixture
All lipid kinase assays contained 50 mM HEPES (4-(2-hydroxyethyl)-1-piperazineethanesulfonic acid)-NaOH, pH 7.5, 1 mM EGTA ((ethylene glycol tetraacetic acid), 100 mM NaCl, 0.03% CHAPS (3-[(3-Cholamidopropyl)dimethylammonio]-1-propanesulfonate), 2 mM DTT (Dithiothreitol), 20 μM ATP (corresponding to the apparent ATP-Km), kinase (7.6 nM) and substrate (50 μM). The assay for PIK3C3 additionally contained 3 mM MnCl2.
The reaction cocktails were incubated at 30° C. for 60 minutes. The reaction was stopped with 25 μl ADP-Go™ reagent per well. Plates were incubated for 40 minutes at room temperature, followed by addition of 50 μl kinase detection reagent per well and incubation for 60 minutes at room temperature. Signal was determined with a microplate luminescence reader (Victor, Perkin Elmer). The assay was either performed using a single dose of compound (1 μM final concentration in the assay reaction) with resulting data expressed as residual activity compared to control (DMSO), or using a serial (half-log) dilution of compounds starting at 10 μM and down to 0.3 nM (final concentrations in the assay) with data expressed as the pIC50.
as §1

## CN1CCCN(C)c2ccc(cn2)-c2ccnc(n2)Nc2cccc(c2)CN2CCN(CC1=O)CC2COCCC#N (stereo not shown)
[1]
  eEF2K_C_PThr56 pIC50: 4.83
[2]
  eEF2K_C_alphalisa pIC50: 7.09
[3]
  VPS34 pIC50: 6.07
  VPS34_1microM_% of cntrl: 26.45 % of cntrl

## CN1CCCOc2ccc(cn2)-c2ccnc(n2)Nc2cccc(c2)CN2CCN(CC2)CC1=O
[2]
  eEF2K_C_alphalisa pIC50: 4.83
[3]
  VPS34_1microM_% of cntrl: 59.71 % of cntrl

## CN1CCCN(C)c2ccc(cn2)-c2ccnc(n2)Nc2cccc(c2)CN2CCN(CC1=O)C(CO)C2 (single isomer, unassigned) [Compound 95]
[1]
  eEF2K_C_PThr56 pIC50: ~4.89
[2]
  eEF2K_C_alphalisa pIC50: 7.17
[3]
  VPS34 pIC50: 6.48
  VPS34_1microM_% of cntrl: 14.26 % of cntrl
